Measured values published in patent US20130045484A1, “METHODS AND KITS FOR DETERMINING THE TOXICITY OF AN AGENT” (priority 2010, published 2013).
Where a name gives a salt, the structure may show the parent alone.

What was measured:
p53R2 (RE) = assay: p53R2 Renilla Luciferase Reporter Gene Assay; settings: mean Renilla RLU ÷ mean ATP response × 10^2, HEK 293, p53R2 (RE) pGL4.70 MinP [hRLuc], mannitol 1 mg/ml, doxorubicin 1 μg/ml, MMS 50 μg/ml, phenformin 250 μg/ml, hydrochloride
Method: Constructs were transiently transfected into human HEK 293 cells using a lipid-based commercially available reagent (FuGENE HD Transfection Reagent, Roche Applied Science). Transfections were carried out following the manufacturer's instructions. Briefly, freshly passaged cells (20,000/well) were dispensed into Greiner Bio-One tissue-culture treated μ-clear (clear base), white, sterile, 96-well cluster plates and incubated overnight (37° C., 95% humidity, 5% CO2) in antibiotic-free media. Cells were transfected (100 ng DNA/well; 5 μl transfection complex/well) with pGL4.70 [hRLuc], p53R2 (RE) pGL4.70 [hRLuc], pGL4.70 MinP [hRLuc], or p53R2 (RE) pGL4.70 MinP [hRLuc] for 24 h, in antibiotic-free media. Several FuGENE HD Transfection Reagent: DNA ratios (3:2-8:2 in the final complex) were evaluated in order to determine the optimal level of transient transfection.
Renilla luciferase activity was measured using the ViviRen Luciferase Live Cell Substrate following the Manufacturer's instructions. […] Microtitre plates were incubated for two minutes at room temperature before measuring luminescence on a Tecan Ultra (Tecan Corporation) in luminescence mode, integrating for 100 ms. Alternatively luminescence can be measured on a LEADseeker multi-modality instrument in luminescence mode (GE Healthcare).

HEK 293 cells = assay: Firefly Luciferase Bioluminescent ATP cell viability assay; format: cell-based, human; settings: phenformin 250 μg/ml, MMS 50 μg/ml, doxorubicin 1 μg/ml
Method: The assay was carried out in 96-well cluster plates on the same cell containing sample(s) as the p53R2 Renilla Luciferase Reporter Gene Assay. Traditionally bioluminescent ATP quantification methods use firefly luciferase to quantify ATP in the presence of inorganic magnesium ions and the substrate luciferin. The ATP assay described here uses a recombinant luciferase from a gene isolated from the Pennsylvania Firefly (Photuris pennsylvania). Following Renilla luciferase gene reporter activity quantification, firefly luciferase activity was measured in each well using the Cell-Titer Glo Luciferase ATP Quantification Assay Kit in accordance with the kit manufacturer's instructions. Briefly, the enzyme substrate was equilibrated to room temperature and reconstituted with the assay buffer. 100 μl of this reagent was added to cells which quenched the Renilla luciferase reaction and liberated the cellular contents by cellular lysis. […] It is based on the quantitative measurement of ATP which indicates the absolute number of metabolically active cells.

caspase-3 = assay: Caspase-3 (apoptosis) Assay; format: cell-based, human; settings: mean Caspase-3 response (405 nm) ÷ mean ATP response × 10^8; HEK 293; mannitol 1 mg/ml, doxorubicin 1 μg/ml, MMS 50 μg/ml, phenformin 250 μg/ml
Method: The assay was carried out using the same cell containing sample(s) as the p53R2 Renilla Luciferase Reporter Gene, the Firefly Luciferase Bioluminescent ATP and the superoxide assays. Once again, all of the assays were performed in 96-well cluster plates. Activation of caspase-3 plays a central role in the execution-phase of apoptosis. Thus, the caspase-3 assay will provide useful information on the mechanism of cellular toxicity. Following SOD measurement, caspase-3 was measured on each cellular sample in accordance with the Caspase-3 Assay Kit manufacturer's instructions. Briefly, the colorimetric assay is based on the hydrolysis of the peptide substrate acetyl-Asp-Glu-Val-Asp p-nitroanilide (Ac-DEVD-pNA) by caspase-3, resulting in the release of the p-nitroaniline (pNA) moiety which can be measured at 405 nm.
For the assay, cellular sample lysates (5 μl) were added to a reaction mixture containing caspase-3 substrate (Ac-DEVD-pNA, 95 μl) and samples were incubated for 2 h at 37° C. Absorbance was measured at 405 nm using a 96-well microtitre plate reader.

superoxide dismutase = assay: Superoxide Dismutase (SOD) (Oxidative Stress) Assay; format: cell-based, human; settings: mean superoxide dismutase response (450 nm) ÷ mean ATP response × 10^7; HEK 293; mannitol 1 mg/ml, doxorubicin 1 μg/ml, MMS 50 μg/ml, phenformin 250 μg/ml
Method: The assay was conducted using the same cell containing sample(s) as the p53R2 Renilla Luciferase Reporter Gene and the Firefly Luciferase Bioluminescent ATP assays. The assays were performed in 96-well cluster plates.
On completion of ATP quantification, SOD was measured on each cellular sample following the SOD assay kit manufacturer's instructions. Briefly, the assay method is based on a water-soluble tetrazolium salt, WST-1 (2-(4-Iodophenyl)-3-(4-nitrophenyl)-5-(2,4-disulfophenyl)-2H-tetrazolium, monosodium salt) that produces a colourimetric formazan dye upon reduction with a superoxide anion which can be measured spectrophotometrically. The rate of the reduction with the superoxide anion is linearly related to […] xanthine oxidase (XO) activity. Thus, cellular samples (20 μl) were added to a reaction mixture (220 μl) containing WST-1 and XO and incubated for 20 mins at 37° C. Absorbance was measured at 450 nm using a 96-well microtitre plate reader.

Compound: [H]/N=C(/N)N/C(=N/[H])NCCc1ccccc1 [Phenformin, phenformin hydrochloride]
- Mean Genotoxic Index (p53R2 (RE)): 1.63
- Mean Genotoxic Index (p53R2 (RE); listed as phenformin): low Genotoxic Index value
- ATP response (cytotoxicity) (HEK 293 cells; FIG. 10e, 8:2 transfection): reduction in ATP response
- ATP response (cytotoxicity) (HEK 293 cells; FIG. 11e, 7:2 transfection): reduction in ATP response
- Mean Apoptotic Index (caspase-3): 6.13
- Mean Stress Index (superoxide dismutase): 1.27
